# Reference: paper PMC11295983 (ESMO Open, 2024)
# Tested on: patients with advanced solid tumor malignancies
# Test: Safety and tolerability
# Type: in vivo, human
# Settings: Total (all pemigatinib doses)
# Procedure, shortened: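 Patients are ≥18 years with solid tumors that progressed after ≥1 prior line. They self-administer oral pemigatinib 9, 13.5 or 20 mg q.d. on 21-day cycles, continuous or intermittent, combined with chemotherapy, trastuzumab or anti-PD-1 antibody until progression or toxicity. Interruption and dose adjustment are allowed. AE frequency, duration and severity are summarized descriptively for patients receiving ≥1 dose.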
substance,measurement,value
pemigatinib + retifanlimab [Pemi/reti],"Dose interruptions because of TEAEs, patients",88.9%
